Source: ChEMBL document CHEMBL5308504, “Tm Shift (DSF) assay results for EUbOPEN Chemogenomics Library” (2023)
This list holds what a sample rich in highest values left over.

Molecular target: Bromodomain-containing protein 4 (Homo sapiens) (UniProt O60885)
Details: Compound concentration 20.0 uM, Protein concentration 2.0 uM, Result type QC Liability

`COc1ccccc1S(=O)(=O)Nc1ccc2c(c1)CN(C)C(=O)N2` gave a ΔTm of 5.16 °C.
